Source: paper PMC4496781, “Functional Roles of Aromatic Residues and Helices of Papiliocin in its Antimicrobial and Anti-inflammatory Activities” (Scientific Reports, 2015)

How the values were obtained:
Conditions in all cases: broth microdilution, 16 h incubation; three independent experiments in triplicate, SD 14.0%
Staphylococcus aureus = test system: Staphylococcus aureus
Procedure: (§1) MICs of the peptides against six standard bacteria and four multidrug-resistant bacteria were determined by a broth microdilution assay as described previously. […] Cytotoxicities against mammalian cells were measured against human RBCs, mouse macrophage-derived RAW264.7 cells, and fibroblast NIH-3T3 cells. The anti-inflammatory activities of the peptides were examined by inhibiting nitrite production in LPS-stimulated RAW264.7 cells.

Pseudomonas aeruginosa = test system: Pseudomonas aeruginosa
Procedure: as §1

Escherichia coli = test system: Escherichia coli
Procedure: as §1

Bacillus subtilis = test system: Bacillus subtilis
Procedure: as §1

Salmonella typhimurium = test system: Salmonella typhimurium
Procedure: as §1

CC[C@H](C)[C@H](NC(=O)CN)C(=O)NCC(=O)N[C@@H](C)C(=O)N[C@H](C(=O)N[C@@H](CC(C)C)C(=O)N[C@@H](CCCCN)C(=O)N[C@H](C(=O)N[C@@H](CC(C)C)C(=O)N[C@H](C(=O)N[C@H](C(=O)NCC(=O)N[C@@H](CC(C)C)C(=O)N1CCC[C@H]1C(=O)N[C@@H](C)C(=O)N[C@@H](CC(C)C)C(=O)N[C@H](C(=O)N[C@@H](CO)C(=O)N[C@@H](Cc1c[nH]c2ccccc12)C(=O)N[C@H](C(=O)N[C@@H](CCCCN)C(=O)N[C@@H](CCCNC(=N)N)C(=O)N[C@@H](CCCCN)C(=O)N[C@@H](CCCNC(=N)N)C(=O)N[C@@H](CCC(N)=O)C(=O)N[C@@H](CCC(N)=O)C(N)=O)[C@@H](C)CC)[C@@H](C)CC)[C@@H](C)O)[C@@H](C)O)C(C)C)C(C)C [Melittin, reference compound]
4.00 µM: MIC, Staphylococcus aureus (Staphylococcus aureus) | MIC, Pseudomonas aeruginosa (Pseudomonas aeruginosa) | MIC, Escherichia coli (Escherichia coli) | MIC, Bacillus subtilis (Bacillus subtilis) | MIC, Salmonella typhimurium (Salmonella typhimurium)
